No end group written: not given here.
How the values were obtained:
hippocampal cells = assay: Aggregate cultures of dissociated hippocampal cells (NCAM mediated cell adhesion); conditions: 24 h in culture
hippocampal neurons = assay: Neurite outgrowth from hippocampal neurons, stereological total neurite length per cell (ProcessLength)

Substance | number of neuronal processes formed (hippocampal cells) | optimal concentration for neuritogenic effect (hippocampal neurons) | neurite outgrowth (total neurite length per cell) (hippocampal neurons; low density culture, 24 h)
C3d: Dendrimer of four C3 peptide monomers coupled to a backbone consisting of three lysines (ASKKPKRNIKA; also: dendrimer of four monomers coupled to a backbone of three lysines) | increase in the number of neuronal processes formed | – | –
Ig2-pd: Dendrimer of the Ig2-peptide composed of four monomers coupled to a lysine backbone (GRILARGEINFK; also: dendrimer of four monomers coupled to a lysine backbone) | – | 3.6 µM | strong neuritogenic effect with a bell shaped dose-response relationship

From patent publication US7402560B2, “NCAM binding compounds” (priority 1998, dated 2008)
